Test [1] deals with α2β2γ1 GABAA receptor subtype (Homo sapiens (Human), UniProt P47869+Q8N1C3). As to the kind of experiment: Two-electrode voltage clamp electrophysiology in Xenopus oocytes expressing GABAA receptors (modulation of GABA EC20 current). The class given is cell-based. The protocol: Xenopus laevis oocytes at maturation stages V-VI were used for the expression of cloned mRNA encoding GABAA receptor subunits. Oocytes ready for RNA micro-injection were bought from Ecocyte, Castrop-Rauxel, Germany and stored in modified Barth's medium (composition in mM: NaCl 88, KCl 1, NaHCO3 2.4, HEPES 10, MgSO4 0.82, CaNO3 0.33, CaCl2 0.33, pH=7.5) at 20° C. until the experiment.
Oocytes were plated in 96-well plates for microinjection using the Roboinject automated instrument (MultiChannelSystems, Reutlingen, Germany). Approximately 50 nL of an aqueous solution containing the RNA transcripts for the subunits of the desired GABAA receptor subtype was injected into each oocyte. […]
Electrophysiological experiments were performed using the Roboocyte instrument (MultiChannelSystems, Reutlingen, Germany) on days 3 to 5 after the micro-injection of mRNA. […] Current traces were recorded at a digitization rate of 10 Hz during and shortly before and after the GABA application. […]
For the analysis, the digitized current traces of the first and second GABA response were superimposed and, if necessary, rescaled to equal maximal amplitudes. The ratio between the two responses during the time interval of test compound application was calculated point by point. […]
Background: In two-electrode clamp one electrode senses voltage and the other passes current.

Test [2] has as its target human GABAA α2β2γ1 receptor (Homo sapiens (Human), UniProt P47869+Q8N1C3). Description: Radioligand binding assay for γ1-containing GABAA subtypes, [3H]RO7239181 competition (α2β2γ1). The protocol:
(§1) The affinity of compounds at GABAA γ1 subunit-containing receptors was measured by competition for [^3H]RO7239181 (67.3 Ci/mmol; Roche) binding to membranes from HEK293F cells (ThermoFisher R79007) expressing human (transiently transfected) receptors of composition α5β2γ1, α2β2γ1, α1β2γ1.
(§2) Harvested pellets from HEK293F cells expressing the different GABAA receptor subtypes were resuspended in Mannitol Buffer pH 7.2-7.4 (Mannitol 0.29 M, Triethylamine 10 mM, Acetic acid 10 mM, EDTA 1 mM plus protease inhibitors (20 tablets Complete, Roche Diagnostics Cat. No. 05 056 489 001 per liter)), washed two times and then resuspended at 1:10 to 1:15 dilution in the same buffer. Cell disruption was performed by stirring the suspension in a Parr vessel #4637 at 435 psi for 15 minutes, and then the suspensions were centrifuged at 1000×g for 15 minutes at 4° C. (Beckman Avanti J-HC; rotor JS-4.2). […] The P2 and P3 protein concentration was determined with the BIORAD Standard assay method with bovine serum albumin as standard and measured on the NANO-Drop 1000. […]
(§3) Membrane homogenates were resuspended and polytronised (Polytron PT1200E Kinematica AG) in Potassium Phosphate 10 mM, KCl 100 mM binding buffer at pH 7.4 to a final assay concentration determined with a previous experiment. […]

Test [3] addresses human GABAA α5β2γ1 receptor (Homo sapiens (Human), UniProt P31644+Q8N1C3). As to the kind of experiment: Radioligand binding assay for γ1-containing GABAA subtypes, [3H]RO7239181 competition (α5β2γ1). The protocol: as §1, §2, §3

This note sets out measurements from patent US12365687B2 (Hoffmann-La Roche Inc., priority 2021, dated 2025).

For orientation: Ki means the dissociation constant of the complex between target and ligand, obtained from inhibition or displacement. High values mean a looser hold on the target, low ones a stronger hold on the target. Consider `C[C@@H]1N=C(c2c(F)cccc2F)c2c(ccc(C(F)(F)F)c2Cl)-n2nc(C(=O)N3CC(OC(F)F)C3)nc21` [Example 51, [3-(difluoromethoxy)azetidin-1-yl]-[(4S)-7-chloro-6-(2,6-difluorophenyl)-4-methyl-8-(trifluoromethyl)-4H-[1,2,4]triazolo[1,5-a][1,4]benzodiazepin-2-yl]methanone], for which the “Efficacy (GABA)%” value in test [1] (% modulation of GABA EC20 = 100*(Fold increase-1), α2β2γ1 oocytes, compound at approx. 30-fold Ki) is given as 49%. In addition, the “Fold increase h-GABA-A α2β2γ1 oocyte @ 30-fold Ki” value in test [1] (Xenopus oocytes expressing α2β2γ1, compound at approx. 30-fold its Ki α2β2γ1, GABA EC20 current) was 1.49. Moreover, the Ki in test [2] (Ki h-GABAA α2β2γ1, [3H]RO7239181 competition binding, human GABAA α2β2γ1) was 29.3 nM; in test [2] (Ki h-GABAA α2β2γ1, displacement of [3H]RO7239181, membranes of HEK293F cells expressing human receptors, means of two determinations), 29.3 nM; in test [3] it was 2.5 nM.
